Source: patent US20170343570A1
Values after ≈ are worked out from the molar mass of the structure shown. Some compounds may have been tested in ways that are not shown here.

System: antibody derived from Immunogen 2 (polyclonal antisera)
Test: Competitive assay (ELISA) for cross-reactivity measurement
Settings: for % CR (cross-reactivity): MT-45 = 100; for Ave OD: OD 450 nm; for CR, Curve 1: replicate run 1; for CR, Curve 2: replicate run 2; for CR, Curve 3: replicate run 3
[1] = Table 1a, antisera 0.625 μg/ml from sheep 1
[2] = Table 1a, antisera 0.625 μg/ml from sheep 1, average of 3 curves
[3] = Table 1a, antisera 0.625 μg/ml from sheep 1, standard conc. 0.015625 ng/ml
[4] = Table 1a, antisera 0.625 μg/ml from sheep 1, standard conc. 0.03125 ng/ml
[5] = Table 1a, antisera 0.625 μg/ml from sheep 1, standard conc. 0.0625 ng/ml
[6] = Table 1a, antisera 0.625 μg/ml from sheep 1, standard conc. 0.125 ng/ml
[7] = Table 1a, antisera 0.625 μg/ml from sheep 1, standard conc. 0.25 ng/ml
[8] = Table 1a, antisera 0.625 μg/ml from sheep 1, standard conc. 0.5 ng/ml
[9] = Table 1a, antisera 0.625 μg/ml from sheep 1, standard conc. 1 ng/ml
[10] = Table 1b, antisera 10.00 μg/ml from sheep 2
[11] = Table 1b, antisera 10.00 μg/ml from sheep 2, average of 3 curves
[12] = Table 1b, antisera 10.00 μg/ml from sheep 2, standard conc. 0.03125 ng/ml
[13] = Table 1b, antisera 10.00 μg/ml from sheep 2, standard conc. 0.0625 ng/ml
[14] = Table 1b, antisera 10.00 μg/ml from sheep 2, standard conc. 0.125 ng/ml
[15] = Table 1b, antisera 10.00 μg/ml from sheep 2, standard conc. 0.25 ng/ml
[16] = Table 1b, antisera 10.00 μg/ml from sheep 2, standard conc. 0.5 ng/ml
[17] = Table 1b, antisera 10.00 μg/ml from sheep 2, standard conc. 1 ng/ml
[18] = Table 1b, antisera 10.00 μg/ml from sheep 2, standard conc. 2 ng/ml
[19] = Table 1c, antisera 5.00 μg/ml from sheep 3
[20] = Table 1c, antisera 5.00 μg/ml from sheep 3, standard conc. 0.03125 ng/ml
[21] = Table 1c, antisera 5.00 μg/ml from sheep 3, standard conc. 0.0625 ng/ml
[22] = Table 1c, antisera 5.00 μg/ml from sheep 3, standard conc. 0.125 ng/ml
[23] = Table 1c, antisera 5.00 μg/ml from sheep 3, standard conc. 0.25 ng/ml
[24] = Table 1c, antisera 5.00 μg/ml from sheep 3, standard conc. 0.5 ng/ml
[25] = Table 1c, antisera 5.00 μg/ml from sheep 3, standard conc. 1 ng/ml
[26] = Table 1c, antisera 5.00 μg/ml from sheep 3, standard conc. 2 ng/ml

## Oc1cccc(CC(c2ccccc2)N2CCN(C3CCCCC3)CC2)c1 (stereo not drawn)
[1]
  IC50: 0.158 ng/mL (≈ 0.433 nM)
[2]
  % CR (cross-reactivity): 82.9%
[3]
  B/Bo: 92%
  Ave OD: 1.905
[4]
  B/Bo: 87%
  Ave OD: 1.818
[5]
  B/Bo: 73%
  Ave OD: 1.511
[6]
  B/Bo: 58%
  Ave OD: 1.203
[7]
  B/Bo: 37%
  Ave OD: 0.765
[8]
  B/Bo: 19%
  Ave OD: 0.389
[9]
  B/Bo: 9%
  Ave OD: 0.192
Table 1a, sheep 1 antisera
  CR, Curve 1: 75.8%
  CR, Curve 2: 80.5%
  CR, Curve 3: 92.4%
[10]
  IC50: 0.344 ng/mL (≈ 0.944 nM)
[11]
  % CR (cross-reactivity): 81.1%
[12]
  B/Bo: 89%
  Ave OD: 1.713
[13]
  B/Bo: 82%
  Ave OD: 1.573
[14]
  B/Bo: 70%
  Ave OD: 1.353
[15]
  B/Bo: 57%
  Ave OD: 1.101
[16]
  B/Bo: 42%
  Ave OD: 0.811
[17]
  B/Bo: 27%
  Ave OD: 0.528
[18]
  B/Bo: 17%
  Ave OD: 0.321
Table 1b, sheep 2 antisera
  CR, Curve 1: 73.4%
  CR, Curve 2: 82.6%
  CR, Curve 3: 87.3%
[19]
  % CR (cross-reactivity): 88.4%
[20]
  B/Bo: 93%
  Ave OD: 1.725
[21]
  B/Bo: 83%
  Ave OD: 1.548
[22]
  B/Bo: 68%
  Ave OD: 1.266
[23]
  B/Bo: 50%
  Ave OD: 0.927
[24]
  B/Bo: 33%
  Ave OD: 0.612
[25]
  B/Bo: 19%
  Ave OD: 0.350
[26]
  B/Bo: 10%
  Ave OD: 0.189

## c1ccc(CC(c2ccccc2)N2CCN(C3CCCCC3)CC2)cc1 (stereo not drawn)
[1]
  IC50: 0.131 ng/mL (≈ 0.376 nM)
[2]
  % CR (cross-reactivity): 100%
[3]
  B/Bo: 91%
  Ave OD: 1.903
[4]
  B/Bo: 76%
  Ave OD: 1.602
[5]
  B/Bo: 72%
  Ave OD: 1.506
[6]
  B/Bo: 51%
  Ave OD: 1.069
[7]
  B/Bo: 33%
  Ave OD: 0.687
[8]
  B/Bo: 16%
  Ave OD: 0.339
[9]
  B/Bo: 8%
  Ave OD: 0.165
[10]
  IC50: 0.279 ng/mL (≈ 0.8 nM)
[11]
  % CR (cross-reactivity): 100%
[12]
  B/Bo: 82%
  Ave OD: 1.594
[13]
  B/Bo: 79%
  Ave OD: 1.543
[14]
  B/Bo: 66%
  Ave OD: 1.286
[15]
  B/Bo: 52%
  Ave OD: 1.006
[16]
  B/Bo: 37%
  Ave OD: 0.728
[17]
  B/Bo: 24%
  Ave OD: 0.462
[18]
  B/Bo: 14%
  Ave OD: 0.276
[19]
  IC50: 0.221 ng/mL (≈ 0.634 nM)
  % CR (cross-reactivity): 100%
[20]
  B/Bo: 83%
  Ave OD: 1.549
[21]
  B/Bo: 81%
  Ave OD: 1.523
[22]
  B/Bo: 64%
  Ave OD: 1.205
[23]
  B/Bo: 46%
  Ave OD: 0.851
[24]
  B/Bo: 28%
  Ave OD: 0.527
[25]
  B/Bo: 16%
  Ave OD: 0.294
[26]
  B/Bo: 8%
  Ave OD: 0.155
Antibody from KLH immunogen, MT-45-CME-HCTL-maleimide-HRP (Tracer 2) as detecting agent
  IC50 of the antibody to MT-45 as calculated from a standard curve: < 1.00 ng/mL
